Measured affinities in a library of Ab-91 heavy chain variants

Source: Engelhart et al. 2022 (doi:10.1038/s41597-022-01779-4), MIT Lincoln Laboratory and A-Alpha Bio; data file from the FLAb repository.

Target: peptide PDVDLGDISGINAS, taken from heptad repeat 2 (HR2) of SARS-CoV-2 spike.

Parent: Ab-91, a human scFv built as VL, a (GGGGS)3 linker, VH. Only the CDRs of the heavy chain vary.
VL: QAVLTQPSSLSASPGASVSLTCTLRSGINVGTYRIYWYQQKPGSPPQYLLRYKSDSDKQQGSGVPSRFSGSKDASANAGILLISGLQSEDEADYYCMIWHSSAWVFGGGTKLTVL
VH: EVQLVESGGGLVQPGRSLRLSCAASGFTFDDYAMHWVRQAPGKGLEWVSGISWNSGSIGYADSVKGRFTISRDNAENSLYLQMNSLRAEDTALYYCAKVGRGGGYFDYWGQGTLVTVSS

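The parent was found by panning a naive human phage display library on the peptide. Library AAYL51 holds single substitutions and randomly drawn double and triple substitutions in the CDRs. The scFvs were displayed on barcoded MATa yeast, the peptide on MATalpha yeast. After mating in shaken culture at 30 °C for 16 h, diploids were selected and their barcode pairs sequenced. Read counts were normalised to the haploid input and turned into Kd by a linear fit to BCL2-family pairs of known affinity, for each replicate. Each pool was mated in three replicate cultures.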

The parent's heavy chain CDRs are GFTFDDYAMH, GISWNSGSIGYADSVK, VGRGGGYFDY; each variant's own CDRs replace them letter for letter.
Scale: log10 of Kd in nM, estimated from mating counts; low values are strong binders.
The mean shown is taken over the replicates in which the pair was detected.
Where no diploid with the target was found in that replicate, the entry reads "nd": below detection, most likely a poor binder, though not proof of it.
In this assay the parent's reference entry averaged 1.86; its copy inside this library read 0.88.
Three control strains display no target. For library AAYL51, 21% of the pairings with them gave a signal, with a median of 4.54 and one signal in twenty below 3.26, so weak values seen in few replicates may be background. Also given: how often the same scFv was detected with the empty control strains.

Variant GFTFDDYAMH | GISWNSMSIGYADSVK | VGRHSGYFDY gave 4.07, nd, nd (controls 1 of 9).
Variant GFTVDDYAMH | GISWNSYSIGYADMVK | VGRGGGYFDY gave 3.85, 3.60, 2.77 (mean 3.41; controls 5 of 9).
Variant GFTFDDYAMH | PISWNSGSIGYAQSVK | VGRGGGYFDQ gave nd, nd, nd (controls 0 of 9).
Variant GFTFDTYAMH | GIQWNSGSIGYADSVK | VDRGGGYFDY gave nd, 3.78, 4.82 (mean 4.30; controls 3 of 9).
Variant GFTFDDYAMH | GISWNTGHIGYADSVK | VGRGGWYFDY gave nd, nd, nd (controls 0 of 9).
Variant GFTFDDYAMH | GISWNSGSIGYADSVK | VGRGGGYFFA gave 2.26, 2.38, 2.60 (mean 2.42; controls 3 of 9).
Variant GFTFKDDAMA | GISWNSGSIGYADSVK | VGRGGGYFDY gave 4.05, 5.44, nd (mean 4.74; controls 3 of 9).
Variant GFTFDDYAMH | GISMNMGSIGYADSVK | VGRGGGYFDY gave 2.20, 2.24, 2.28 (mean 2.24; controls 4 of 9).
Variant GFTFDDYLMH | GISWNSGSIGYADSVK | VMLGGGYFDY gave nd, 3.80, nd (controls 0 of 9).
Variant GFTFDDYATH | GISWNSGSIGYADLVK | VGRGGGYFDY gave 5.20, nd, nd (controls 1 of 9).
Variant GFTFDDYAMH | GISWNSGSDGEADSVK | VGRGGKYFDY gave 4.00, nd, nd (controls 1 of 9).
Variant GFTFDDYAMH | GISWNKGSIGYADSVK | VGRGGNYFAY gave 4.98, 5.61, 5.42 (mean 5.34; controls 6 of 9).
Variant GFTFDDYARH | GISWNSGSIQYADSVK | VGRGGGMFDY gave 4.70, nd, nd (controls 3 of 9).
Variant GWTFLDYAMH | GISWNSGSIGYADSVP | VGRGGGYFDY gave 5.80, nd, 5.17 (mean 5.48; controls 4 of 9).
Variant GFTFDDYAMH | GISSNSGSIWYADSVK | VGRGGGYFDY gave 2.78, nd, nd (controls 0 of 9).
Variant GFVFDDYAMH | GISWNSGSEGYADSVK | VGRGGGYFDY gave 0.70, 0.63, 0.10 (mean 0.48; controls 0 of 9).
Variant GFTFDDYAMM | GISWNSFSIGYADSVK | VRRGGGYFDY gave 4.71, 4.79, 5.44 (mean 4.98; controls 8 of 9).
Variant GFTFDDYAMH | GISWNSGSIGYMDSVK | VHRQGGYFDY gave 4.72, 6.55, 5.16 (mean 5.48; controls 1 of 9).
Variant GWTFDDYAMA | GISWNSGSIGYADSVK | VGRGGYYFDY gave nd, nd, nd (controls 0 of 9).
Variant WFTFTDYYMH | GISWNSGSIGYADSVK | VGRGGGYFDY gave 4.42, 5.05, nd (mean 4.74; controls 3 of 9).
Variant GFAFDDYAMH | GISWNENSIGYADSVK | VGRGGGYFDY gave nd, nd, nd (controls 0 of 9).
Variant GFTFDDYAMH | GISWNSGSINYADSVK | VGMGGQYFDY gave nd, nd, nd (controls 2 of 9).
Variant GFQFDDYAMH | GISWNSGSIGYADSVK | VGRLGGGFDY gave nd, 5.33, nd (controls 2 of 9).
Variant GFTCDDYAMH | GISWNSGSIGYLDSVK | VGRGGGYFHY gave nd, nd, nd (controls 3 of 9).
Variant GFTFDDRAMH | GISWNSGSIGYADSVK | TGRGGGYHDY gave 4.96, nd, nd (controls 2 of 9).
Variant GFTFDDYAMH | GISWNSGTIGYADSVK | VYRGGGYFDY gave 4.65, nd, nd (controls 4 of 9).
Variant GFTFDDRAMH | GISWNSGSIGYADCVK | DGRGGGYFDY gave nd, nd, nd (controls 0 of 9).
Variant GLTFDDYAMH | GISWNSGSIGYSDSVK | VGRGGGYFRY gave nd, 4.40, nd (controls 0 of 9).
Variant GFTFDDYNMH | EISWNSGSIGYCDSVK | VGRGGGYFDY gave 4.85, 6.19, nd (mean 5.52; controls 5 of 9).
Variant GFTFDDYAMH | GISWNSGCVGYADSVK | VGRGGGYFDY gave 1.90, 1.84, 1.50 (mean 1.75; controls 5 of 9).
Variant GFTFDNYAMC | GISWNSGSIGYADSVK | VGRGGGYFDY gave 4.40, 4.56, 5.38 (mean 4.78; controls 8 of 9).
Variant GFGFDDYAMS | GISWNSGSIHYADSVK | VGRGGGYFDY gave 3.31, 4.23, 4.58 (mean 4.04; controls 4 of 9).
Variant AFTFDDYAMH | GISWNSGSIGYADSAK | VGRGGGYEDY gave nd, nd, nd (controls 0 of 9).
Variant GFTFDDYARH | GISWNSGSKGYFDSVK | VGRGGGYFDY gave nd, nd, nd (controls 1 of 9).
Variant GFTFDDYAML | GISWNSGSIGYADSVE | GGRGGGYFDY gave nd, 5.08, nd (controls 2 of 9).
Variant GFTFDDYAMC | GISWNSGSIGYADSFK | VGRGGGYFYY gave nd, nd, nd (controls 2 of 9).
Variant GFTFDDYAMH | GISWASGSIHYADSVK | VGRGGGMFDY gave nd, nd, nd (controls 1 of 9).
Variant GFTVDDYAMH | GISWNSGSIGSADSVC | VGRGGGYFDY gave 4.40, nd, nd (controls 2 of 9).
Variant GFTCDDYAMH | GISWNSGSIWYAKSVK | VGRGGGYFDY gave nd, nd, nd (controls 0 of 9).

For reference, 4 entries of the list once more:

CDR-H1	CDR-H2	CDR-H3	replicates, log10 nM	log10 Kd (nM), mean	signal with controls
GFTFDNYAMC	GISWNSGSIGYADSVK	VGRGGGYFDY	4.40, 4.56, 5.38	4.78	8/9
GFTFDDYARH	GISWNSGSIQYADSVK	VGRGGGMFDY	4.70, nd, nd	4.70	3/9
GFTFDDYAMH	GISSNSGSIWYADSVK	VGRGGGYFDY	2.78, nd, nd	2.78	0/9
GFTFDDYAMH	GISWNSGCVGYADSVK	VGRGGGYFDY	1.90, 1.84, 1.50	1.75	5/9